Test results published in patent publication US20050136015A1, “Topical use of halosalicylic acid derivatives” (priority 2003, published 2005).

What was measured:
Assay in all cases: MLC (minimal lethal concentration) test
Type in all cases: cell-based
[1] = test system: Candida albicans
[2] = test system: Pseudomonas aeruginosa
[3] = test system: Staphylococcus epidermidis
[4] = test system: Escherichia coli
[5] = test system: Aspergillus niger

O=C(O)c1ccccc1O [Salicylic Acid, salicylic acid]
MLC, % Concentration for Bacterioidal Activity [1]: 0.25% | MLC, % Concentration for Bacterioidal Activity [2]: 0.0625% | MLC, % Concentration for Bacterioidal Activity [3]: 0.125% | MLC, % Concentration for Bacterioidal Activity [4]: 0.125% | MLC, % Concentration for Bacterioidal Activity [5]: 0.25%
